Measured values published in US5228957A, “Separation of methyl T-butyl ether from close boiling C5 hydrocarbons by extractive distillation” (priority 1993, dated 1993).
Like-named read-outs stand apart in the source and are kept apart here.

Experiments:
[1] = Extractive distillation agent separating methyl t-butyl ether from cyclopentane (vapor-liquid equilibrium still); assay type: physicochemical; conditions: cyclopentane to methyl t-butyl ether, with agent
Source text: The data in Tables 2-6 was obtained in a vapor-liquid equilibrium still.

[2] = Extractive distillation agent separating methyl t-butyl ether from n-pentane-cyclopentane mixtures (vapor-liquid equilibrium still); assay type: physicochemical

Row | SMILES | Relative Volatility [1] | Relative Volatility Pnt/MTBE [2] | Relative Volatility CyP/MTBE ([2]; cyclopentane to methyl t-butyl ether, n-pentane-cyclopentane mixture, with agent) | Relative Volatility CyP/MTBE [2] | Relative Volatility Pnt/MTBE ([2]; n-pentane to methyl t-butyl ether, n-pentane-cyclopentane mixture, with agent)
1 | N#CCCCCC#N [Adiponitrile] | 2.9 | 1.4 | 3.9 | – | –
2 | COC(=O)c1ccccc1 [Methyl benzoate] | – | – | – | 1.6 | 1.8
